This passage reports IC50 results from patent US10633338B2, “Binding Function 3 (BF3) site compounds as therapeutics and methods for their use” (THE UNIVERSITY OF BRITISH COLUMBIA, priority 2014, dated 2020).

The chains behind the UniProt entries cited, without tags or fusion partners.
UniProt P10275, whole entry T878A: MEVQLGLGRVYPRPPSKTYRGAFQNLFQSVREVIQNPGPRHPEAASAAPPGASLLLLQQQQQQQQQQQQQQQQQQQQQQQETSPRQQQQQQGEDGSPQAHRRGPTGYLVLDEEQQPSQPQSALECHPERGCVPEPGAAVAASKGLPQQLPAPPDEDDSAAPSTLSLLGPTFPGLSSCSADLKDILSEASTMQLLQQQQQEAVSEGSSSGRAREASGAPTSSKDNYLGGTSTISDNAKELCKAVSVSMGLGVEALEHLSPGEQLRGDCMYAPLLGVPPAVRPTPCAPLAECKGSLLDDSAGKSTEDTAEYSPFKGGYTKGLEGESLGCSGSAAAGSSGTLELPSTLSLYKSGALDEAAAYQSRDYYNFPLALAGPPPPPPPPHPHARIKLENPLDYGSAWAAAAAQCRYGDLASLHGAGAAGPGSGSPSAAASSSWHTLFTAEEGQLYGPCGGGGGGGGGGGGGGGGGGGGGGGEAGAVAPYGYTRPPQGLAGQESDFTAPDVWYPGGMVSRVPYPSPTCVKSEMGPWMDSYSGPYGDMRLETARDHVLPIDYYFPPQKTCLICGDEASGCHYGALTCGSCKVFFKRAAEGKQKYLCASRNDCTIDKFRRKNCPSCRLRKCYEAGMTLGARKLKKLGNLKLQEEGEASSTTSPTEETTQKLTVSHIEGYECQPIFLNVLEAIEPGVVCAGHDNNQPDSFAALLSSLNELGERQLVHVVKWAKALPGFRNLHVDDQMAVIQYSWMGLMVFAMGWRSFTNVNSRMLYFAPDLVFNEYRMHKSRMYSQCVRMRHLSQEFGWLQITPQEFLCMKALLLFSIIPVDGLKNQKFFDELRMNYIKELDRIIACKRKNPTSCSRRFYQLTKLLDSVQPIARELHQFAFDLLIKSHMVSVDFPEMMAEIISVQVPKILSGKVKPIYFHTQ

What is called IC50 is the concentration that inhibits the measured activity by half.

The target in the assay is T1, androgen receptor (AR) (Homo sapiens, UniProt P10275, T878A).
T1 construct: stably transfected eGFP-expressing LNCaP human prostate cancer cells (LN-ARR2PB-eGFP) containing an androgen responsive probasin-derived promoter; endogenous in cells; host or cells: LNCaP (LN-ARR2PB-eGFP)
The assay is described as follows: eGFP cellular AR transcription assay. In kind it is cell-based. How it is done:
After 5 days, the cells were plated into a 96-well plate (35,000 cells/well) with 0.1 nM of the synthetic androgen R1881 and increasing concentrations (0-100 μM) of compound.
After 5 days, the cells were plated into a 96-well plate (35,000 cells/well) with 0.1 nM R1881 and increasing concentrations (0-100 μM) of compound.
In this assay, the expression of eGFP is under the control of an androgen responsive probasin-derived promoter and can quantify AR transcriptional activity.

In the case of `Fc1cc(Cl)c2[nH]cc(-c3ccc4ccccc4n3)c2c1` [Compound 13624], the IC50 turned out to be 100 nM.
